pIC50: −log10 of the molar value.
Biological target: Protein kinase C beta type (Homo sapiens, UniProt P05771)
Experiment: Inhibition of PKCbeta1 (unknown origin) by IMAP kinase assay

By UniProt entry, the sequences of proteins in these tests, tags left out.
UniProt P05771, whole entry: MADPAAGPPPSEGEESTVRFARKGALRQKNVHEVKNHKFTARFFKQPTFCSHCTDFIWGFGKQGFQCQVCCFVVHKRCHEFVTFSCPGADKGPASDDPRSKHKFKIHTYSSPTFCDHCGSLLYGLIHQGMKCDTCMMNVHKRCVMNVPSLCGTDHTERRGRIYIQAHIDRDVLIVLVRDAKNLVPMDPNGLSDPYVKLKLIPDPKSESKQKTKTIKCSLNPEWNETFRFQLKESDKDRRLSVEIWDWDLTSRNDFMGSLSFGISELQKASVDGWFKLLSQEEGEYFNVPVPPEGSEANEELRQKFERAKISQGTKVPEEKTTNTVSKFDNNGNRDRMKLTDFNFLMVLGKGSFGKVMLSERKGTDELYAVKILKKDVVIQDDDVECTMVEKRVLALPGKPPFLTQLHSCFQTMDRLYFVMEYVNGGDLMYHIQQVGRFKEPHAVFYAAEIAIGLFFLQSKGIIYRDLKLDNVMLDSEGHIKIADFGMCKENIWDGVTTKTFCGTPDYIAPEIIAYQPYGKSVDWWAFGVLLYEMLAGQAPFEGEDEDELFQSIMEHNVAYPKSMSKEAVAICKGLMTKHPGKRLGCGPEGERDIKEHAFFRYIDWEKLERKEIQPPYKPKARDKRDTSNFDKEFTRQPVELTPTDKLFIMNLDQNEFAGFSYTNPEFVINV

CN1CCN(c2nc(C3=C(c4c[nH]c5ccccc45)C(=O)NC3=O)c3ccccc3n2)CC1 [SOTRASTAURIN]
pIC50: 9.19
